The subject of the assay is prostatic adenocarcinoma cell line PC-3. The assay can be described thus: SRB cytotoxicity assay, single compounds, PC-3. In kind it is cell-based. To be noted: 48 h. Here is the method:
The prostatic adenocarcinoma cell line PC-3 (ATCC order number: CRL-1435; Invest Urol (1979) 17,16; Cytogenet Cell Genet (1993) 62,183) was used. […] The cells were cultured at 37° C., 5% CO2 in F-12K media supplemented with 10% FCS and 1% Pen/Strep.
[…]. The cells were incubated for 48 hours and the effect of this combination of compounds on cellular proliferation was determined with the SRB assay.

The record followed here is US20090030067A1, “Anti-proliferative combination therapy comprising satraplatin or jm118 and a taxane” ((GPC Biotech AG), priority 2005, published 2009).

The structures appear in SMILES notation.

Usually IC50 stands for the concentration at which inhibition is half-maximal.

Consider `CC(=O)O[C@@]12CO[C@@H]1C[C@H](O)[C@@]1(C)C(=O)[C@H](O)C3=C(C)[C@@H](OC(=O)[C@H](O)[C@@H](NC(=O)OC(C)(C)C)c4ccccc4)C[C@@](O)([C@@H](OC(=O)c4ccccc4)[C@H]21)C3(C)C` [Docetaxel, N-debenzoyl-N-tert-butoxycarbonyl-10-deacetyl paclitaxel], for which the IC50 was found to be 8 nM.
